Data: PubChem BioAssay AID651725 (National Center for Advancing Translational Sciences (NCATS), 2012)
The entries are a selection whose mix differs from that of the whole data set. Active and inactive are the calls of the source. Rule as the data show it: active = activity change below about -65%; inconclusive = mostly about -30% to -63%; inactive = weaker than that.

Amino acid sequences for entries named in this document (tags omitted).
UniProt Q15475, whole entry: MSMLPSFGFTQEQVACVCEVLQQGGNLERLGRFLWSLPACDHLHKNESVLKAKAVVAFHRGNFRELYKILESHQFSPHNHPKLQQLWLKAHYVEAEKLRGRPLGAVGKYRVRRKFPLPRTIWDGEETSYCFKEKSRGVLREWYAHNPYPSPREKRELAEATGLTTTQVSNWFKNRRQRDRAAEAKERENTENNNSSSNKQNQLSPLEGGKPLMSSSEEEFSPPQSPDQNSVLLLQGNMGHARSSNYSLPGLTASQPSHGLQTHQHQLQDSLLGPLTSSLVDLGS

What follows are compounds tested against Homeobox protein SIX1 (Homo sapiens) + Protein phosphatase EYA2 (Homo sapiens) (UniProt Q15475+O00167) (assay: qHTS Assay for Inhibitors of the Six1/Eya2 Interaction). Details: AlphaScreen GST-Six1/His-Eya2 binding, biochemical; hits give low values.
Description: Its expression is low or undetectable in normal adult breast tissue but the gene is over-expressed in 50% of primary breast tumors and 90% of metastatic lesions. […] Similar to Six1, Eya2 is also not expressed in most normal adult tissues, but is reexpressed in cancers. The Six1-Eya interaction is essential for proliferation during embryonic development, and both Six1 and Eya2 have been independently implicated in the same types of cancer. Because Six1 and Eya2 are embryonic genes with little expression in adult tissues, inhibitors of their expression/activity are likely to have limited side effects. Our goal is to identify inhibitors of the Six1/Eya interaction for potential cancer therapy. To this end, we have developed a homogenous AlphaScreen assay targeting the Six1/Eya interaction. We performed a large scale HTS of the Molecular Libraries Small Molecule Repository (MLSMR) to identify inhibitors of the Six1/Eya interaction as potential anti-cancer therapeutics. Compounds identified can also be used as chemical probes to better understand the biological functions of Six1 and Eya. NIH Chemical Genomics Center [NCGC] NIH Molecular Libraries Probe Centers Network [MLPCN] MLPCN Grant: DA033147 Assay Submitter (PI): Rui Zhao, University of Colorado Denver
The first step of the 5 uL AlphaScreen assay is to dispense assay buffer (50 mM Tris, pH 8.0, 300 mM NaCl, 0.05% BSA, 0.02% Tween 20, 1 mM TCEP) into a Greiner 1536 white solid bottom microtiter plate (789175-F). Five microliters is added to Column 1, 4 uL is added to Column 2 and 3 uL is added to Columns 3 through 48. A 5X protein solution (250 nM GST-Six1 protein + 500 nM His-tagged Eya2 protein) is mixed and 1 uL is dispensed to Columns 3-48. Using a 1536 pintool, 23 nL of compound is transferred to the assay plate. A solution of 5X AlphaScreen beads is mixed (50 ug/mL Glutathione linked donor beads + Nickel chelated acceptor beads) and 1 uL is dispensed to Columns 2-48. The assay plate is incubated for one hour, with a lid, at 37 deg C in the dark. The plate is read using a Perkin Elmer Envision using an AlphaScreen protocol.
% is scaled to controls: 0 for no effect and ±100 for the full control effect.

Row | Compound | activity change
1 | COc1ccc(N)c([N+](=O)[O-])c1[N+](=O)[O-] | inactive: -8.93%
2 | COc1ccc(OP(C)(=O)Nc2cccc(Br)c2)cc1 (stereo unspecified) | inactive: 2.21%
3 | O=P(Nc1ccccn1)(c1ccc(Br)cc1)c1ccc(Br)cc1 | inactive: 7.54%
4 | CN(C)C1(CNC(=O)c2ccc(Cl)c(S(N)(=O)=O)c2)CCCCC1 | inactive: 3.07%
5 | C[C@H]1OP(=O)(Oc2ccccc2)[C@H](O)[C@H](O)[C@H]1N=[N+]=[N-] (stereo partly specified) | inactive: -3.55%
6 | CN(C)CCOC(=O)C(O)(c1ccccc1)C1CCCCC1 (stereo unspecified) | inactive: 0.699%
7 | O=P(Nc1nc2ccccc2s1)(c1ccccc1)c1ccccc1 | inactive: 5.73%
8 | COc1ccc(NP(C)(=O)Oc2ccccc2OC)cc1 (stereo unspecified) | inactive: 6.65%
9 | O=[N+]([O-])c1ccc(O)c(/C=N/Nc2ccc([N+](=O)[O-])cc2[N+](=O)[O-])c1 | inactive: -9.16%
10 | O=[N+]([O-])c1ccc(OP2(=O)COCCO2)cc1 (stereo unspecified) | inactive: 0.994%
11 | CC(=O)NC(SC(=S)N(C)C)C(Cl)(Cl)Cl (stereo unspecified) | inactive: 1.92%
12 | O=[N+]([O-])c1ncn(CCn2cnc([N+](=O)[O-])n2)n1 | inactive: 1.33%
13 | Cc1cc(-c2cccc3ccccc23)c(C)cn1.O=[N+]([O-])c1cc([N+](=O)[O-])c(O)c([N+](=O)[O-])c1 | inactive: -5.31%
14 | O=[As](O)(c1ccccc1)c1ccc(O)cc1 | inactive: 2%
15 | C(Cc1nn[nH]n1)Cc1nn[nH]n1 | inactive: 7.08%
16 | Nc1ccc([As](=O)(O)c2ccc([N+](=O)[O-])cc2)cc1 | inactive: 6.77%
17 | Cc1c(C(c2ccc3c(c2)OCO3)c2c(C)n(C)n(-c3ccccc3)c2=O)c(=O)n(-c2ccccc2)n1C.O=[N+]([O-])c1cc([N+](=O)[O-])c(O)c([N+](=O)[O-])c1 | inactive: 0.25%
18 | O=C(OC1CN2CCC1CC2)c1cccc(Cl)c1 (stereo unspecified) | inactive: -0.738%
19 | CP(=O)(Nc1ccc(SC(F)(F)F)cc1)Oc1ccc(F)cc1 (stereo unspecified) | inactive: 5.19%
20 | CC(C)C(=O)NC(Sc1ccccc1)C(Cl)(Cl)Cl (stereo unspecified) | inactive: 8.24%
21 | O=P(Nc1nccs1)(c1ccccc1)c1ccccc1 | inactive: 1.67%

Row | Compound | activity change
22 | CCOP(C)(=S)SCC(=O)NC(C)(CC)C(=O)O (stereo unspecified) | inactive: 8.7%
23 | c1nnnn1CCn1cnnn1 | inactive: 0.356%
24 | CP(=O)(Nc1ccc2c(c1)OCCO2)Oc1ccccc1 (stereo unspecified) | inactive: -15.4%
25 | Cc1ccccc1NP(C)(=O)Nc1ccccc1C | inactive: -2.06%
26 | O=[N+]([O-])c1cc([N+](=O)[O-])c(C(F)(F)F)c([N+](=O)[O-])c1O | inactive: -3.96%
27 | CCOc1ccc(C2=NCC(CBr)S2)cc1 (stereo unspecified) | inactive: 5.13%
28 | O=P1(Nc2nc3ccc(Cl)cc3s2)COc2ccccc2O1 (stereo unspecified) | inactive: -0.0943%
29 | CP(=O)(Nc1ccccc1F)Oc1ccccc1 (stereo unspecified) | inactive: 17.7%
30 | CCc1cc(O)c([N+](=O)[O-])c(C)c1[N+](=O)[O-] | inactive: 1.52%
31 | CC(C)c1ccc(OP(C)(=O)Nc2ccc(SC(F)(F)F)cc2)cc1 (stereo unspecified) | inactive: 1.13%
32 | CC(C)(C)C(=O)NC(Sc1ccccc1)C(Cl)(Cl)Cl (stereo unspecified) | inactive: 11.3%
33 | COC(=O)C1(C)COP(=O)(NCc2ccccc2)OC1 (stereo unspecified) | inactive: 6.17%
34 | CC(=O)c1ccc(N2CC2c2ccncc2)cc1 (stereo unspecified) | inactive: 2.91%
35 | N#C/C(=C\c1ccc(N(CCBr)CCBr)cc1)C(N)=O | inactive: -13.3%
36 | C[C@H]1OP(=O)(Oc2ccccc2)C[C@@H]2O[C@@H]21 (stereo partly specified) | inactive: 1.56%
37 | C[C@@H]1C=CCP(=O)(Oc2ccccc2)O1 (stereo partly specified) | inactive: 3.55%
38 | Cc1ccccc1CN(C)C(=O)COC(=O)C(O)(c1ccccc1)c1ccccc1 | inactive: 9.3%
39 | O=C(OCCN1CCN(CCOCc2ccccc2)CC1)C(O)(c1ccccc1)c1ccccc1 | inactive: 6.72%
40 | CC(=O)Nc1ccc(Oc2c([N+](=O)[O-])cc([N+](=O)[O-])cc2[N+](=O)[O-])cc1 | inactive: -5.56%
41 | CC(=O)Nc1ccc([As](=O)(O)O)c(O)c1 | inactive: 6.66%
42 | CCNC(=S)/N=C(\N)N[N+](=O)[O-] | inactive: -0.0791%

Row | Compound | activity change
43 | O=C(NC1CCS(=O)(=O)C1)NP(=S)(Oc1ccccc1)Oc1ccccc1 (stereo unspecified) | inactive: 4.3%
44 | Cc1ccc(NP(=O)(Oc2cccc(C)c2)Oc2cccc(C)c2)nc1 | inactive: 4.41%
45 | CCOC(=O)c1ccc(NP(C)(=O)Oc2ccc(F)cc2)cc1 (stereo unspecified) | inactive: -5.17%
46 | O=P1(N(CCCl)CCCl)OCCC2CCCCN21 (stereo unspecified) | inactive: 0.208%
47 | COc1ccc(OP(C)(=O)Nc2ccc(SC(F)(F)F)cc2)cc1 (stereo unspecified) | inactive: -4.1%
48 | CC(=O)NC(SC(=S)N(CC(C)C)CC(C)C)C(Cl)(Cl)Cl (stereo unspecified) | inactive: -11.9%
49 | Cc1ccc(OP(=O)(Nc2ccccn2)Oc2ccc(C)cc2)cc1 | inactive: 2.36%
50 | Cc1c([N+](=O)[O-])cc([N+](=O)[O-])c(Br)c1[N+](=O)[O-] | inactive: 3.34%
51 | COC(=O)c1cc2c(s1)N=C(c1ccccc1)N(C)P2(=O)N1CCOCC1 (stereo unspecified) | inactive: 1.48%
52 | CCN(CC)CCCOC(=O)C(O)(c1ccccc1)C1CCCCC1 (stereo unspecified) | inactive: 0.171%
53 | CCC(=O)N1C2C3N(C(=O)CC)C1C1N(C(=O)CC)C(C(N1C(=O)CC)N3C(=O)CC)N2C(=O)CC | inactive: -3.06%
54 | O=C(OC1CN2CCC1CC2)c1ccccc1 (stereo unspecified) | inactive: -15.6%
55 | CP(=O)(Nc1ccccc1)Oc1ccc(F)cc1 (stereo unspecified) | inactive: 0.168%
56 | CCCCCOc1ccc(NP(C)(=O)Oc2ccc(Cl)cc2Cl)cc1 (stereo unspecified) | inactive: -14.4%
57 | O=c1c2cc([N+](=O)[O-])ccc2[nH]c2c([N+](=O)[O-])cc([N+](=O)[O-])cc12 | inactive: 0.242%
58 | CN(C)C(=O)Oc1noc2ccccc12 | inactive: 8.8%
59 | CC(NC(=O)COC(=O)C(O)(c1ccccc1)c1ccccc1)c1ccccc1 (stereo unspecified) | inactive: 0.262%
60 | Cc1ccccc1OP(=O)(Nc1ccccn1)Oc1ccccc1C | inactive: -24.7%
61 | CCCC1OP(N)(=O)OCC1CC (stereo unspecified) | inactive: 4.16%
